Screens (PubChem BioAssay)
ARNT TACC3 PPI: ARNT/TACC3 interaction disruption; Q9Y6A5; AlphaScreen His-ARNT PAS-B/GST-TACC3 binding, luminescence; TACC3 fragment carries E629A point mutation; inhibition, % at 9.99 µM; 0.66% of 390,000 active;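 active = mean inhibition of replicates at least 50% and at least half of replicates each reaching 50%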
FGF22 binding: shifts melting point of recombinant human FGF22; recombinant FGF22 thermal shift, SYPRO orange fluorescence; percent of sucrose octasulfate shift, DMSO zero; activity (Tm shift, normalised), % at 9.99 µM; 1.5% of 340,000 active; Q9HCT0;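 active = mean Tm shift, scaled 0 neutral to 100 positive control, at about 1.3% or above, every replicate too, limit read from the data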
PglD inh: blocks C. jejuni PglD acetyltransferase activity | 0.098% of 360,000 active | purified PglD enzyme, DTNB colorimetric CoA detection | inhibition, % at 12.5 µM | AID 602405; in the data active = inhibition above about 16%, passing the limit was not always enough
PDI inh: PDI (human) enzyme inhibition; P07237; PDI insulin aggregation turbidity, A650, 90 min; inhibition, % at 10 µM; 0.052% of 350,000 active;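 active = mean inhibition across replicates of 30% or more, whatever share of single replicates reach that level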
UUG fidelity: modulators of yeast start codon fidelity, primary screen, whole organism, S. cerevisiae, single point, plate reader; S. cerevisiae UUG-firefly luciferase reporter, luminescence/redox ratio; activity score, % at 18.7 µM; 0.13% of 350,000 active; AID 602363, 2012;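 active = replicate mean at a twofold rise or more, about +100% in these data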;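 also: firefly luciferase made from a UUG start codon reports start codon fidelity; reporter light over untreated wells divided by growth signal over untreated wells; some hits fall short of that in this replicate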
ERp5 inh: inhibitors of human ERp5. Q15084. ERp5 insulin aggregation, absorbance 650 nm, 90 min. inhibition, % at 9.99 µM. 0.05% of 350,000 active;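 active = mean replicate inhibition above about 25%, with every replicate also reaching it, limit read from the data, passing the limit was not always enough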
Large screens that a line does not name were inactive. Compounds with a hit are over-represented: about 1.9% of the library has one in this group of screens.

O=C(CN1CCCC1)N/N=C/c1c(O)ccc2ccccc12	ARNT TACC3 PPI 59 (no result: FGF22 binding)
Cc1ccc(O)c(/C=N/NC(=O)CN2CCCC2)c1	ARNT TACC3 PPI 66
O=C(N/N=C/c1c(O)ccc2ccccc12)C(=O)N1CCCC1	none (no result: ARNT TACC3 PPI)
C[C@H]1CN([C@@H](C)CO)C(=O)c2cccc(NS(=O)(=O)c3cn(C)cn3)c2O[C@H]1CN(C)C(=O)Nc1cccc2ccccc12	none (no result: PDI inh)
Cc1ccccc1S(=O)(=O)N1[C@H](C#N)[C@H](c2ccc(C#CC3CCCC3)cc2)[C@H]1CO	none (no result: ARNT TACC3 PPI, FGF22 binding, PglD inh, PDI inh, UUG fidelity)
COc1ccc(NC(=O)Nc2ccc3c(c2)C(=O)N([C@H](C)CO)C[C@@H](C)[C@H](CN(C)CC2CCCCC2)O3)cc1	none (no result: PDI inh)
COc1cccc(-c2ccc([C@H]3[C@@H](CO)N4CCCCN(C(=O)c5ccc(F)cc5)C[C@H]34)cc2)c1	none (no result: PDI inh)
COc1cc(-n2nc(C)c3c2OC(N)=C(C#N)C3c2ccccc2)c(Cl)c(Br)c1O (stereo not given)	ARNT TACC3 PPI 33 (no result: FGF22 binding, ERp5 inh)
Cc1nn(-c2ccccc2)c2c1C(c1ccncc1)C(C#N)=C(N)O2 (stereo not given)	none (no result: FGF22 binding, PglD inh, UUG fidelity, ERp5 inh)
C[C@@H]1CN([C@@H](C)CO)C(=O)c2cc(C#Cc3ccccn3)cnc2O[C@H]1CN(C)C(=O)c1ccccn1	none (no result: PDI inh)
O=C(C[C@H]1CC[C@H](NC(=O)Cc2cccnc2)[C@@H](CO)O1)NCc1ccc2c(c1)OCO2	none (no result: PDI inh)
COc1ccccc1C#Cc1ccc([C@H]2[C@@H](C#N)N(C(=O)C3CCCC3)[C@H]2CO)cc1	none (no result: ARNT TACC3 PPI, FGF22 binding, PglD inh, PDI inh, UUG fidelity)
FC(F)(F)c1ccccc1NC(=S)NC1CCN(Cc2ccccc2)CC1	FGF22 binding 44 (no result: PglD inh, UUG fidelity)
CN(C)C(=O)c1ccc(-c2ccccc2[C@H]2[C@H](C#N)N(C(=O)C3CCCCC3)[C@H]2CO)cc1	none (no result: ARNT TACC3 PPI, PglD inh, PDI inh, UUG fidelity)
Cc1cc(Cl)ccc1OCC(=O)NCC(=O)N/N=C/c1ccco1	FGF22 binding 43 (no result: ARNT TACC3 PPI, PglD inh, UUG fidelity)
O=C(CCCCCCCCC(=O)N/N=C/c1ccco1)N/N=C/c1ccco1	FGF22 binding 43
Cc1ccccc1OCC(=O)N/N=C/c1ccco1	none (no result: FGF22 binding, ERp5 inh)
NC(=O)c1ncn([C@@H]2O[C@H](CNCc3cccn3-c3ccncc3)[C@@H](O)[C@H]2O)n1	FGF22 binding 43
Cc1cc(CNC[C@H]2O[C@@H](n3cnc(C(N)=O)n3)[C@H](O)[C@@H]2O)c(C)n1-c1cccnc1	none (no result: ARNT TACC3 PPI)
CO[C@H]1CC[C@@H]2CCOc3c(C#N)cccc3C(=O)N(C)C[C@H](OC)[C@@H](C)C(=O)N(C)C[C@H]1O2	none (no result: PDI inh, UUG fidelity)
CN(CC(=O)Nc1c(Cl)cccc1Cl)CC(=O)N(C)C1(C#N)CCCCC1	FGF22 binding 43
CN(CC(=O)Nc1c(Cl)cccc1Cl)C(=O)Cc1ccc2c(c1)CCC2	none
O=C(Nc1cc(F)ccc1F)N1C[C@@H]2[C@H](c3ccccc31)[C@@H](CO)N2Cc1ccncc1	none (no result: PDI inh)
O=C(c1ccc(-n2nc(C(F)(F)F)c3c2CCCC3)cc1)N1CCOCC1	FGF22 binding 43 (no result: PglD inh, UUG fidelity)
O=C(O)c1ccc(-n2nc(C(F)(F)F)c3c2CCCC3)cc1	none (no result: FGF22 binding)
CCCC#Cc1ccc([C@@H]2[C@H](C#N)N(C(=O)C3CCCC3)[C@H]2CO)cc1	none (no result: PDI inh)
C[C@H](CO)N1C[C@H](C)[C@@H](CN(C)C(=O)Nc2ccc3c(c2)OCO3)OCCCC[C@H](C)Oc2ccc(NS(=O)(=O)c3ccc(Cl)cc3)cc2C1=O	none (no result: PDI inh)
O=C(CN1C(=O)c2ccccc2C1=O)Nc1cc([N+](=O)[O-])ccc1O	FGF22 binding 44
COc1cccc(-c2cn(CC[C@H]3CC[C@@H](NS(=O)(=O)c4ccccc4Cl)[C@@H](CO)O3)nn2)c1	none (no result: PDI inh)
O=C(C[C@@H]1CC[C@H](NS(=O)(=O)c2ccc(F)cc2)[C@@H](CO)O1)NC1CCCCC1	none (no result: PDI inh)
O=C(NC(=S)Nc1ccc(N2CCOCC2)cc1)c1ccc2c(c1)OCCO2	none (no result: FGF22 binding, ERp5 inh)
CS(=O)(=O)N1CCN(c2ccc(NC(=S)NC(=O)c3ccc4c(c3)OCO4)cc2)CC1	FGF22 binding 44 (no result: PglD inh, UUG fidelity)
COc1ccc(CNC(=O)C2(C)Cc3ccccc3C(=O)O2)cc1 (stereo not given)	FGF22 binding 44 (no result: PglD inh, UUG fidelity)
Cc1ccc(S(=O)(=O)N2c3ccc(S(N)(=O)=O)cc3CC2C)cc1 (stereo not given)	FGF22 binding 44 (no result: ARNT TACC3 PPI)
Cc1ccc(S(=O)(=O)N2c3ccccc3CC2C)cc1 (stereo not given)	none (no result: ARNT TACC3 PPI, FGF22 binding, PglD inh, UUG fidelity)
